Test results as given in PMC9501438, “Unveiling the Essential Role of Arkadia’s Non-RING Elements in the Ubiquitination Process” (International Journal of Molecular Sciences, 2022).

Molecular target: T1, ubiquitin (UniProt P0CG48 1-76)
T1 construct: ubiquitin, the free monomer (cut product of a polyubiquitin precursor); 15N-labelled in the NMR titrations; also called free ubiquitin; source: untagged, purified by heating at 85 °C, centrifugation and size exclusion chromatography
Experiment: NMR titration; 1H-15N HSQC of free 15N-labelled ubiquitin after addition of Arkadia 119 aa (isoform 1) or Arkadia isoform 2
Details: both partners purified

binding result: binds
B1: Arkadia isoform 2 (876–986 aa) (domain or fragment, human, UniProt Q6ZNA4-2 876-986, looked up)
chain: FRGNFEELIHLEERLGNVNRGASQGTIERCTYPHKYKKRKLHCKQDGEEGTEEDTEEKCTICLSILEEGEDVRRLPCMHLFHQVCVDQWLITNKKCPICRVDIEAQLPSES
notes: Arkadia (RNF111) isoform 2, which lacks the segment Val914-Q921 of isoform 1; numbers count on: isoform 2
